Binding of CDR-mutated scFvs to a peptide of the spike HR2 region

Data: MIT Lincoln Laboratory AlphaSeq set, Engelhart et al. 2022, doi:10.1038/s41597-022-01779-4, as distributed in FLAb.

Binding partner: SARS-CoV-2 spike HR2 peptide, sequence PDVDLGDISGINAS.

Parent scFv Ab-91: VL joined to VH by a 15-residue (Gly4Ser)3 linker. Changes lie in the heavy chain CDRs alone.
VL: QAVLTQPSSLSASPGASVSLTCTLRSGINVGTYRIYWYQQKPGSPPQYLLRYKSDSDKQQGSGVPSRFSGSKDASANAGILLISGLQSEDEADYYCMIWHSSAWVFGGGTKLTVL
VH: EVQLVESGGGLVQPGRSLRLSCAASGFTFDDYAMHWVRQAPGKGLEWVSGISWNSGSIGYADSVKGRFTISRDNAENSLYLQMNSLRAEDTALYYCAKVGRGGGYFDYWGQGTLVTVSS

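The starting antibody came from a phage panning campaign against this peptide. Variants in AAYL51 differ from the parent at up to three CDR positions; double and triple changes were sampled at random. Affinity was read by AlphaSeq, a pooled yeast mating assay with surface-displayed partners. Binding brings cells together so that they mate, and sequencing counts the barcode pairs among the diploids. A regression on co-assayed BCL2-family reference pairs converts the normalised counts of each replicate to an apparent Kd. There are three technical replicates.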

Substitutions are numbered in sequence along the VH above, starting at 1 (not Kabat).
Numbers give log10(Kd / nM), so 0 is 1 nM and 3 is 1 µM. Smaller is tighter.
A pair that was not seen in that replicate is written "n.d."; this usually means weak binding, but a binder can also be missed.
Nonspecific signal, from three strains lacking the peptide, appeared in 21% of pairings of library AAYL51, centred on 4.54 (5% of these signals below 3.26); values are not corrected for it. Also given: how often the same scFv was detected with the empty control strains, with their mean in brackets.

| changes | log10 Kd (nM) by replicate | signal with controls |
|---|---|---|
| G59A Y60G Y105H | 5.06 / 5.49 / n.d. | 4 of 9 (4.57) |
| S57L D62Y | 3.64 / n.d. / 3.76 | 1 of 9 (2.76) |
| M34L G50M Y108T | n.d. / 2.88 / n.d. | 0 of 9 |
| D31H G59H Y60S | 5.40 / 6.33 / n.d. | 4 of 9 (4.92) |
| T28D G50P S52P | 4.72 / 6.08 / n.d. | 4 of 9 (5.38) |
| S55H V64S G104W | n.d. / n.d. / n.d. | 1 of 9 (4.47) |
| T28Q G103L G104N | n.d. / n.d. / 4.67 | 4 of 9 (4.04) |
| G26C Y108V | 3.22 / 3.11 / 3.25 | 4 of 9 (4.66) |
| G26Y Y32S V99K | n.d. / 5.57 / 5.45 | 3 of 9 (4.41) |
| G26A F27R G59M | 5.39 / 4.10 / n.d. | 2 of 9 (3.46) |
| F29Y S57R Y60S | 5.09 / n.d. / n.d. | 3 of 9 (4.09) |
| F29C H35V K65L | 5.08 / 3.22 / 3.80 | 3 of 9 (4.53) |
| T28C S63F R101E | 4.84 / 4.99 / n.d. | 6 of 9 (4.88) |
| S52Y V99T G102V | n.d. / n.d. / n.d. | 0 of 9 |
| G26H V64T K65S | 4.19 / n.d. / n.d. | 0 of 9 |
| G100S G102H Y105E | 5.63 / 6.93 / n.d. | 6 of 9 (4.68) |
| I58G A61T F106M | n.d. / n.d. / n.d. | 2 of 9 (4.34) |
| G50H S55V R101F | n.d. / n.d. / n.d. | 1 of 9 (3.16) |
| F27S S63F | n.d. / n.d. / n.d. | 1 of 9 (4.62) |
| D30M N54W S57R | 4.93 / 4.70 / 5.98 | 8 of 9 (4.73) |
| A61L K65R R101C | 3.24 / n.d. / n.d. | 0 of 9 |
| H35M V64M | n.d. / n.d. / n.d. | 0 of 9 |
| F27D W53N S63C | n.d. / n.d. / n.d. | 0 of 9 |
| A33H N54D | n.d. / 3.99 / n.d. | 1 of 9 (5.12) |
| A33W G104L | n.d. / n.d. / n.d. | 0 of 9 |
| G26V G56Y G59E | 5.34 / 6.39 / 4.08 | 5 of 9 (4.66) |
| I51E R101T | 3.52 / 5.01 / n.d. | 1 of 9 (3.53) |
| S63M Y105N D107Q | 2.30 / 2.27 / 2.50 | 1 of 9 (3.61) |
| M34L Y105P Y108F | n.d. / 3.57 / n.d. | 1 of 9 (3.71) |
| G50N S55Y G100I | n.d. / 3.00 / n.d. | 1 of 9 (2.88) |
| G102Q G103R D107I | 3.65 / n.d. / 3.30 | 1 of 9 (3.10) |
| S52K G56P G104I | n.d. / 4.82 / 4.78 | 1 of 9 (4.07) |
| G102V | n.d. / n.d. / n.d. | 0 of 9 |
| G59V Y105S | 3.71 / n.d. / n.d. | 4 of 9 (4.58) |
| D30P H35R D107V | 5.93 / 6.21 / 5.18 | 6 of 9 (4.35) |
| K65W | 3.06 / 2.76 / 2.70 | 0 of 9 |
| A33S Y60F V99D | n.d. / n.d. / n.d. | 2 of 9 (4.51) |
| G56A R101H G104L | n.d. / n.d. / n.d. | 0 of 9 |
| M34A F106H D107V | 2.92 / 2.96 / 3.36 | 5 of 9 (4.37) |
| I58F V64W | n.d. / n.d. / n.d. | 1 of 9 (3.76) |
| D30P F106K Y108F | 1.29 / 1.35 / 0.63 | 0 of 9 |
| T28K M34W | 2.37 / 2.57 / 2.94 | 3 of 9 (4.89) |
| G26K K65E | 3.45 / 3.16 / 3.22 | 2 of 9 (4.41) |

The 3 strongest on average among those seen in every replicate, once more:

changes,log10 Kd (nM) by replicate,signal with controls
D30P F106K Y108F,1.29 / 1.35 / 0.63,0 of 9
S63M Y105N D107Q,2.30 / 2.27 / 2.50,1 of 9 (3.61)
T28K M34W,2.37 / 2.57 / 2.94,3 of 9 (4.89)